Test results published in ChEMBL document CHEMBL5727164, “Bicyclic-fused heteroaryl or aryl compounds” (2019).

Chains of the proteins cited; added tags and fusions are not shown.
UniProt Q9NWZ3, whole entry: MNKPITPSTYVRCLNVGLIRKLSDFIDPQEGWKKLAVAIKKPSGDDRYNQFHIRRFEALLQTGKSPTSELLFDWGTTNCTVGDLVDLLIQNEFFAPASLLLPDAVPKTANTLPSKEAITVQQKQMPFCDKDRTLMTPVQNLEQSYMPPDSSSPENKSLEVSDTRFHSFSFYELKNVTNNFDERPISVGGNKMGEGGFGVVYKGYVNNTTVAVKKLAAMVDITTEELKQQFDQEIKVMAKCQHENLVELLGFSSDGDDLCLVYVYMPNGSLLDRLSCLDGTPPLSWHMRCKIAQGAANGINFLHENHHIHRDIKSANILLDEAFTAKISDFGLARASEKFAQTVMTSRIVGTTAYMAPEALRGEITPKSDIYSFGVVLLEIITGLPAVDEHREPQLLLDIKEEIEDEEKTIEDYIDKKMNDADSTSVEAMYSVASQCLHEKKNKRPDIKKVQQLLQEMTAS

Target: Interleukin-1 receptor-associated kinase 4 (Homo sapiens, UniProt Q9NWZ3)

| Compound | IC50 [nM] |
| --- | --- |
| COc1cc2c(OC[C@@H]3NC(=O)[C@H](F)[C@@H]3C)nccc2cc1C(N)=O | 34 |
| COc1cc2c(OC[C@H]3NC(=O)[C@@]4(F)C3[C@H]4C)nccc2cc1C(N)=O (stereo in doubt) | 10 |
